Test results as given in patent publication US8476051B2, “Thermostable alcohol dehydrogenase derived from Thermococcus guaymasensis” (priority 2008, dated 2013).

Key:
CCC(C)O = assay: purified protein, by the assay type; conditions: other: co-substrate NADP^+ (0.4 mM); 80.0 °C
[1] = system: nicotinamide adenine dinucleotide phosphate; assay: purified protein, by the assay type; conditions: 80.0 °C
[2] = other: co-substrate 2-butanol (11 mM)
[3] = other: co-substrate 2-butanone (3 mM)

T. guaymasensis ADH (Thermococcus guaymasensis)
Km (CCC(C)O): 380 µM | Vmax (CCC(C)O): 1250 U mg^−1 | kcat (CCC(C)O): 833 s⁻¹ | kcat/Km (CCC(C)O): 2,192,000 s^−1M^−1 | Km [1, 2]: 400 µM | Vmax [1, 2]: 2000 µmol/min/mg | kcat [1, 2]: 1330 s⁻¹ | kcat/Km [1, 2]: 3.33e+06 M⁻¹ s⁻¹ | Km [1, 3]: 11 µM | Vmax [1, 3]: 237 µmol/min/mg | kcat [1, 3]: 158 s⁻¹ | kcat/Km [1, 3]: 1.44e+07 M⁻¹ s⁻¹
